{"sequences": {"note": "Sequences of proteins named here, by UniProt entry; tags and fusion partners are left off. A change or cut given only in a name is not applied to a line headed by its entry. Residues count along the entry.", "UniProt Q9BZP6, 22-476": "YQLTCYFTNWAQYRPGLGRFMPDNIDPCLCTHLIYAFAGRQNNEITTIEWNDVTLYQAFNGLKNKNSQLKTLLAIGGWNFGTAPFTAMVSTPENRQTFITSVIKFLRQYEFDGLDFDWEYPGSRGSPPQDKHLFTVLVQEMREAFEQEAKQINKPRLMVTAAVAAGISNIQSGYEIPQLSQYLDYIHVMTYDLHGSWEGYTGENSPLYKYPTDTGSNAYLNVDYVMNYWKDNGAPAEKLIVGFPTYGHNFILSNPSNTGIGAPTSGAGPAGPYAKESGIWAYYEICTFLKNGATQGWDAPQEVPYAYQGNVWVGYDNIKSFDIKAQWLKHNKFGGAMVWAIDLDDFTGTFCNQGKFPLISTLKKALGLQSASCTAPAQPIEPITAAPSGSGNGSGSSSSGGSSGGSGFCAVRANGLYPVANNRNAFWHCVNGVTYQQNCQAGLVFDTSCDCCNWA", "UniProt Q12809": "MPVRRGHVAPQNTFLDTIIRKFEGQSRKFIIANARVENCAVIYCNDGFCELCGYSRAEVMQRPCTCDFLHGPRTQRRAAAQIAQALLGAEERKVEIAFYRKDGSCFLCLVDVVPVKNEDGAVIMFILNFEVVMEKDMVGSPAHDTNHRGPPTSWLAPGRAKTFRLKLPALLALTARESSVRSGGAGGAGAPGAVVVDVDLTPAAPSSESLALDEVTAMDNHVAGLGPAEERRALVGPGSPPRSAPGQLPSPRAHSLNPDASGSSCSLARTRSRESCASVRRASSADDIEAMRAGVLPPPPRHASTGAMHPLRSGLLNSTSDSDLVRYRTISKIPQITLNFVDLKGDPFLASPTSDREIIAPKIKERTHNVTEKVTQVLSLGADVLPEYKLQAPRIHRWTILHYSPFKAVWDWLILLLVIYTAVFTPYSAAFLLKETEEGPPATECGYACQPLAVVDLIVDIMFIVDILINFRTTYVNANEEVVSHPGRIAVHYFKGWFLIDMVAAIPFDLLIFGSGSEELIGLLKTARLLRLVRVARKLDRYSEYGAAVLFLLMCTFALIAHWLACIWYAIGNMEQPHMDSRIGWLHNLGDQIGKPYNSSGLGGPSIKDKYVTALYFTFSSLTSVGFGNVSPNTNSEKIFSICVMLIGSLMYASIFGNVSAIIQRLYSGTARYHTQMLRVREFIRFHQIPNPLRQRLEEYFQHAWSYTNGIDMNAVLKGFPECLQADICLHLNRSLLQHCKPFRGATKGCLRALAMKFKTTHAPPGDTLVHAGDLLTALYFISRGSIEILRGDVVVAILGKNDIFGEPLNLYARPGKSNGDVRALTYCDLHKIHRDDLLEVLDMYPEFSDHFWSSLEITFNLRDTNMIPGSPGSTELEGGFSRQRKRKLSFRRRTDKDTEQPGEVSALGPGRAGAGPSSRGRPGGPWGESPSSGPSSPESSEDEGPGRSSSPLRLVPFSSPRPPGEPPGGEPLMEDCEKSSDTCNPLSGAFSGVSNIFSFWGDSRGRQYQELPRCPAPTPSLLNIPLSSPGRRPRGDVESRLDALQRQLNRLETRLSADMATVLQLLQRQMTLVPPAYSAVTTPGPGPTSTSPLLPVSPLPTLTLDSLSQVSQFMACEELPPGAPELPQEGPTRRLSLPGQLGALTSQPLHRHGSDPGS"}, "source": "patent US11638707B2", "about": "“Substituted amino triazoles useful as chitinase inhibitors” (Molecure S.A., priority 2019, dated 2023)", "key": {"recombinant human AMCase": {"target": "recombinant human AMCase (Homo sapiens (Human), UniProt Q9BZP6)", "test": "Human AMCase activity assay", "assay_type": "biochemical", "conditions": "citrate buffer pH 5.2, 37° C., 60 minutes, read-out: hAMCase, IC50", "experimental": "The assay was run in the 96-well plate format, each reaction in the total volume of 100 μL. 4-Methylumbelliferyl B-D-N,N′-diacetylchitobioside hydrate was used as a substrate for the enzyme. Upon hydrolysis by AMCase, the substrate releases 4-methylumbelliferyl (4MU) that, when ionized in basic pH, emits fluorescence at 460 nm. Briefly, 40 μL of a substrate was added to each well, followed by 10 μL of compound dilution and 50 μL of hAMCase recombinant enzyme solution. The reaction was carried out in citrate buffer, pH 5.2, in the dark, at 37° C. for 60 minutes with shaking. […] The IC50 values were calculated using GraphPad Prism."}, "hERG channel": {"target": "hERG channel (Homo sapiens (Human), UniProt Q12809)", "test": "Human ERG channel binding assay (fluorescence polarization)"}}, "data": [{"smiles": "CO[C@@H]1CC[C@H](Cc2ccc(Cl)cc2)N(C2CCN(c3nnc(N)[nH]3)CC2)C1", "note": "[Example 71, 5-((2R,5R)-2-(4-chlorobenzyl)-5-methoxy-[1,4′-bipiperidin]-1′-yl)-4H-1,2,4-triazol-3-amine 2,2,2-trifluoroacetate]", "values": [{"measurement": "IC50", "setting": "recombinant human AMCase", "value": "< 100", "unit": "nM"}]}, {"smiles": "Nc1nnc(N2CCC(N3C[C@H](COCC(F)F)OC[C@@H]3Cc3ccc(Cl)cc3)CC2)[nH]1", "note": "[Example 43, 5-(4-((2R,5S)-5-(4-chlorobenzyl)-2-((2,2-difluoroethoxy)methyl)morpholino)-piperidin-1-yl)-4H-1,2,4-triazol-3-amine 2,2,2-trifluoroacetate]", "values": [{"measurement": "IC50", "setting": "hERG channel", "value": "1000 to 10000", "unit": "nM"}]}, {"smiles": "CC1(O)CCN(C2CCN(c3nnc(N)[nH]3)CC2)[C@@H](Cc2ccc(Cl)cc2)C1", "note": "(stereo partly drawn) [Example 59, (2S)-1′-(5-amino-4H-1,2,4-triazol-3-yl)-2-(4-chlorobenzyl)-4-methyl-[1,4′-bipiperidin]-4-ol 2,2,2-trifluoroacetate]", "values": [{"measurement": "IC50", "setting": "recombinant human AMCase", "value": "< 100", "unit": "nM"}]}]}
